The values that follow are results of earlier work, collected in article PMC8629808.

The subject of this data set is male Sprague–Dawley rats. As to conditions: 32 mg/kg s.c., ref Geller et al. 1983.

On to `CN1CC[C@]23c4c5ccc(O)c4O[C@H]2[C@@H](O)C=C[C@H]3[C@H]1C5`, for which the “decrease in core body temperature” value was “about 1.5 °C”.
